# Test results as given in patent US20230256110A1, “COMBINATION OF ANTIBODY-DRUG CONJUGATE AND ATM INHIBITOR” (AstraZeneca UK Limited, priority 2020, published 2023).
# Legend:
# Format in all cases: cell-based
# [1] = test system: SK-OV-3 cell line; test: Growth inhibition by total cell (nuclear) count, 96-well imaging; settings: monotherapy; SK-OV-3, ovarian, HER2 Moderate; 4 to 8 days
# Experimental: (§1) Cells grown in their respective conditions were plated in 96-well plates at optimal density to allow linear proliferation for the duration of the assay (4 to 8 days; duration of treatment is dependent on the growth rate of each cell line). Immediately after plating, the cells were dosed with the indicated compounds for a total volume of 200 μL/well and placed in the incubator. Combinations were conducted as a 6×8 concentration response matrix for each combination. At the endpoint, the cells were fixed in 2% PFA for 20 minutes at room temperature. In order to obtain the number of cells at the start of treatment, one additional plate was used for each experiment and fixed after cells attached. The cells were then permeabilised in 0.5% Triton-X100 in PBS for 10 minutes. After a PBS wash, the cells were blocked in 5% FBS in PBS 1 h at RT and incubated with primary antibodies in 5% FBS+0.05% triton overnight at 4° C. After 3 washes in PBS cells were incubated with secondary antibodies in 5% FBS+0.05% triton with Hoechst33258 for 1 h at room temperature. After 3 washes in PBS, the cells were scanned with a Cellinsight instrument with a 10×objective and 9 fields/well. Images were analysed using Columbus for cell count based on nuclear Hoechst staining and nuclear intensity of other biomarkers investigated. The total cell count/well was used to calculate the relative growth in each well compared to solvent control. […] The mean/well of the sum of the nuclear intensity of the IF biomarkers was also expressed relative to solvent control.
# [2] = test system: JIMT-1 cell line; test: as above; settings: monotherapy; JIMT-1, breast, HER2 Expressed; 4 to 8 days
# Experimental: as §1
# [3] = test system: DU145-SLFN11 KO (CRISPR-Cas9 gene knockout of SLFN11); test: as above; settings: monotherapy, prostate, HER2 Low, 4 to 8 days
# Experimental: as §1
# [4] = test system: DU145 cell line; test: as above; settings: monotherapy; DU145, prostate, HER2 Low; 4 to 8 days
# Experimental: as §1
# [5] = test system: MDA-MB-468 cell line; test: as above; settings: monotherapy; MDA-MB-468, breast, HER2 Low; 4 to 8 days
# Experimental: as §1
# [6] = test system: NCI-N87 cell line; test: as above; settings: monotherapy; NCI-N87, gastric, HER2 High; 4 to 8 days
# Experimental: as §1
# [7] = test system: KPL4 cell line; test: as above; settings: monotherapy; KPL4, breast, HER2 High; 4 to 8 days
# Experimental: as §1
# [8] = test system: ATM signaling; test: Inhibition of ATM signaling, antibody blots of whole-cell extracts; settings: Her2-high NCI-N87 and KPL4; DS-8201 at 30 μg/mL or exatecan mesylate alone
# Experimental: Gastric cancer NCI-N87 and breast carcinoma KPL4 cell lines were cultured in RPMI 1640 supplemented with 10% FCS in a humidified incubator at 37° C. with 5% CO2. Cells were plated in 6-well plates at optimal density to allow linear proliferation for the duration of the assay. […] 7 h, 24 h or 48 h after dosing, whole-cell extracts were obtained by lysis in 50 mM Tris-HCl pH 7.5, 2% SDS containing protease and phosphatase inhibitors. Lysates were boiled for 5 minutes at 95° C. Protein concentration was measured using a Nanodrop at […] and 50 μg of lysate were loaded in 4-12% Bis Tris gels. Proteins were transferred using iblot2. Primary antibodies (see Table 7) were incubated overnight at 4° C. in 3% milk TBS-tween 0.05% and HRP-conjugated secondary antibodies for 1 h at room temperature. Blots were imaged using a G-box.
# [9] = test system: KAP1 pSer824, γH2AX; test: Immunofluorescence biomarkers of ATM activation and DNA damage in KPL4 cells; settings: high-HER2 KPL4
# Experimental: Cells grown in their respective conditions were plated in 96-well plates at optimal density to allow linear proliferation for the duration of the assay (4 to 8 days; duration of treatment is dependent on the growth rate of each cell line). Immediately after plating, the cells were dosed with the indicated compounds for a total volume of 200 μL/well and placed in the incubator. Combinations were conducted as a 6×8 concentration response matrix for each combination. At the endpoint, the cells were fixed in 2% PFA for 20 minutes at room temperature. In order to obtain the number of cells at the start of treatment, one additional plate was used for each experiment and fixed after cells attached. The cells were then permeabilised in 0.5% Triton-X100 in PBS for 10 minutes. After a PBS wash, the cells were blocked in 5% FBS in PBS 1 h at RT and incubated with primary antibodies in 5% FBS+0.05% triton overnight at 4° C. After 3 washes in PBS cells were incubated with secondary antibodies in 5% FBS+0.05% triton with Hoechst33258 for 1 h at room temperature. […] Images were analysed using Columbus for cell count based on nuclear Hoechst staining and nuclear intensity of other biomarkers investigated. […] To calculate the synergy scores, the growth inhibition data were analysed using Combenefit software (Di Veroli G Y et al., Bioinformatics 2016, 32(18), 2866-8). […]
substance,measurement,setting,value
"DS-8201: anti-HER2 antibody-drug conjugate, exatecan-derivative drug-linker conjugated to anti-HER2 antibody via thioether bond; DAR 7.7 or 7.8",GI50,[1],4674 ng/mL
same,GI50,[2],22609 ng/mL
same,GI50,[3],17080 ng/mL
same,GI50,[4],18361 ng/mL
same,GI50,[5],3367 ng/mL
same,GI50,[6],19 ng/mL
same,GI50,[7],44 ng/mL
same,"activation of the ATM pathway (pATM-S1981, pChk2-T68, pKap1-S824)",[8],induced activation of the ATM pathway
same,biomarkers of ATM (KAP1 pSer824) activation and DNA strand breaks (yH2AX),[9],induced in a concentration dependent manner
